Experimental data taken from the supplement of paper PMC4206461.
The list shows a part of the results, in another mix than the full data.

Each compound was assayed on Pseudomonas aeruginosa PA14 wild type (assay: respiration area under curve with compound as sole nitrogen source, 24 h (OmniLog AUC (arbitrary units)); higher = more respiration / better utilisation as nitrogen source, active = 2000 or more). Conditions: plate: PM8.
Experimental: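 Biolog Phenotype MicroArray plates PM6-PM8: each di/tripeptide is the sole nitrogen source (IF-0 medium with succinate/ferric citrate and dye mix A). Tetrazolium reduction was read in the OmniLog every 15 min for 24 h at 37°C and summarised as area under the respiration curve (arbitrary units). The paper counts values below 2000 as no respiration and above 8000 as solid respiration. Replicate datasets are averaged. Lys/His/Cys peptides are excluded because the paper states they reduce the dye without growth.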

How did the “respiration area under curve” value turn out when CC(C)C[C@H](N)C(=O)N[C@@H](Cc1ccc(O)cc1)C(=O)O was run?
Its value is active: 8090.
